Literature values as cited in paper PMC3890056.

Sequences of proteins named here, by UniProt entry; tags and fusion partners are left off. Residues count along the entry.
UniProt P19235, 25-250: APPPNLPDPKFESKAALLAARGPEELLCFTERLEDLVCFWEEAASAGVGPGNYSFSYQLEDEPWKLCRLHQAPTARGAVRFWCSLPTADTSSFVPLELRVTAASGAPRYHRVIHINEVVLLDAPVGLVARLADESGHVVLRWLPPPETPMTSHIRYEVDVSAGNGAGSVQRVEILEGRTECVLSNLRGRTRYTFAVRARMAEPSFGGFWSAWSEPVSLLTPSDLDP

Target: erythropoietin (Homo sapiens) (UniProt P01588)
Assay: 125I-rHuEpo binding

erythropoietin receptor (from UniProt P19235)
Kd: 0.1 nM
